Test results as given in paper PMC5663884, “Compositional and expression analyses of the glideosome during the Plasmodium life cycle reveal an additional myosin light chain required for maximum motility” (The Journal of Biological Chemistry, 2017).

Tests used:
[1] = biological target: Recombinant GST-tagged PfMyoA (wheat germ cell-free system) (P. falciparum) (UniProt Q8IDR3); assay: optical tweezers (single-molecule three-bead assay); actin filament held between two neutravidin-coated beads, MyoA on a third bead; 8 μM ATP
[2] = biological target: Recombinant GST-tagged PfMyoA (wheat germ cell-free system) (P. falciparum) (UniProt Q8IDR3); assay: optical tweezers (single-molecule three-bead assay); actin filament held between two neutravidin-coated beads, MyoA on a third bead; 0.3 μM ATP

Work on “Actin filaments (F-actin) (from UniProt P68135 1-377) (natural protein)” yielded an average duration of acto-MyoA binding events at 8 μM ATP [1] of 0.013 s, a rate constant of the single-exponential fit to event lifetimes at 8 μM Mg·ATP [1] of 53 s⁻¹ and an average duration of acto-MyoA binding events at 0.3 μM ATP [2] of 0.1 s. The rate constant of the single-exponential fit to event lifetimes at 0.3 μM Mg·ATP [2] was 6.9 s⁻¹.
